Measured values as given in EPA's ToxRefDB 2.

Key:
[1] = test system: rat; conditions: Sub-acute repeat dose toxicity; sprague dawley; Oral; Gavage/Intubation; dose end: 36 day; group: systemic; systemic / in life observation / clinical signs / hyperactivity
[2] = test system: rat; conditions: Prenatal developmental toxicity study, sprague dawley, Oral, Gavage/Intubation, dose end: 21 PND
[3] = test system: rat; conditions: Prenatal developmental toxicity study; Oral; Gavage/Intubation; dose end: 1 generation; group: maternal; reproductive / reproductive performance / estrous cycle / corpora lutea + reproductive / reproductive performance / fertility / fertility + …
[4] = test system: rabbit; conditions: Prenatal developmental toxicity study, Oral, Gavage/Intubation, dose end: 15 day
[5] = test system: rat; conditions: Prenatal developmental toxicity study, long evans, Oral, Gavage/Intubation, dose end: 3 PND, group: developmental
[6] = test system: rabbit; conditions: Prenatal developmental toxicity study, Injection, Intravenous, dose end: 13 day
[7] = test system: rabbit; conditions: Sub-acute repeat dose toxicity; Injection; Intravenous; dose end: 5 day; group: systemic; systemic / in life observation / clinical signs / altered breathing rate + systemic / in life observation / clinical signs / labored …
[8] = test system: rat; conditions: Prenatal developmental toxicity study, Injection, Intravenous, dose end: 12 day
[9] = test system: rat; conditions: Prenatal developmental toxicity study, Injection, Intravenous, dose end: 12 day; remark: listed apart in the source
[10] = group: developmental, developmental / developmental landmark / vaginal opening / vaginal opening + systemic / in life observation / body weight / offspring (pup) …
[11] = group: maternal, systemic / in life observation / clinical signs / motor activity
[12] = group: maternal, systemic / in life observation / clinical signs / motor activity + systemic / in life observation / body weight / body weight
[13] = group: developmental, developmental / developmental malformation / trunk / omphalocele + systemic / in life observation / body weight / fetal weight
[14] = group: maternal, reproductive / offspring survival early / litter size / litter size + reproductive / reproductive performance / aborted / aborted + …
[15] = developmental / developmental landmark / anogenital distance (agd) / anogenital distance (agd)
[16] = developmental / developmental malformation / penis / hypospadias + developmental / developmental landmark / anogenital distance (agd) / …
[17] = group: developmental, systemic / in life observation / body weight / fetal weight
[18] = group: maternal, systemic / in life observation / mortality / mortality
[19] = group: maternal, systemic / in life observation / mortality / mortality + reproductive / reproductive performance / aborted / aborted + systemic / in life …
[20] = group: developmental, developmental / developmental malformation / bone / [other] + developmental / developmental malformation / bone / incomplete ossification + …
[21] = group: maternal, systemic / in life observation / food consumption / food consumption + systemic / pathology gross / skin / mass + systemic / pathology gross…
[22] = group: maternal, systemic / in life observation / mortality / mortality + systemic / in life observation / body weight / body weight + systemic / in life …

## COCCOC[C@H](CC1(C(=O)NC2CCC(C(=O)O)CC2)CCCC1)C(=O)Oc1ccc2c(c1)CCC2 (some centres not stated) [Candoxatril]
[1]
  LEL: 120 mg/kg/day
[2]; [10]
  LEL: 1200 mg/kg/day
  LOAEL: > 1200 mg/kg/day
  NEL: 400 mg/kg/day
  NOAEL: ≥ 1200 mg/kg/day
[2]; [11]
  LEL: 120 mg/kg/day
  NEL: < 120 mg/kg/day
[2]; [12]
  LOAEL: > 1200 mg/kg/day
  NOAEL: ≥ 1200 mg/kg/day

## CC(C)(C)c1cc(/C=C2\SC(N)=NC2=O)cc(C(C)(C)C)c1O.CS(=O)(=O)O [Darbufelone mesylate]
[3]
  LOAEL: > 50 mg/kg/day
  NOAEL: ≥ 50 mg/kg/day
[4]; [13]
  LOAEL: > 100 mg/kg/day
  NOAEL: ≥ 100 mg/kg/day
[4]; [14]
  LOAEL: > 100 mg/kg/day
  NOAEL: ≥ 100 mg/kg/day

## CC12CC1(C)C(=O)N(c1cc(Cl)cc(Cl)c1)C2=O (configuration not stated) [Procymidone]
[5]; [15]
  LEL: 25 mg/kg/day
  NEL: < 25 mg/kg/day
[5]; [16]
  LOAEL: > 200 mg/kg/day
  NOAEL: ≥ 200 mg/kg/day

## NC(N)=NC(=O)c1cnn(-c2cccc3ncccc23)c1C1CC1 [Zoniporide]
[6]; [17]
  LEL: 150 mg/kg/day
  LOAEL: > 150 mg/kg/day
  NEL: 50 mg/kg/day
  NOAEL: ≥ 150 mg/kg/day
[6]; [18]
  LEL: 15 mg/kg/day
  NEL: < 15 mg/kg/day
[6]; [19]
  LOAEL: > 150 mg/kg/day
  NOAEL: ≥ 150 mg/kg/day
[7]
  LEL: 250 mg/kg/day
[8]; [20]
  LEL: 200 mg/kg/day
  LOAEL: > 200 mg/kg/day
  NOAEL: ≥ 200 mg/kg/day
[8]; [21]
  LEL: 15 mg/kg/day
  LOAEL: > 200 mg/kg/day
  NEL: < 15 mg/kg/day
  NOAEL: ≥ 200 mg/kg/day
[9]; [17]
  LEL: 250 mg/kg/day
  LOAEL: > 250 mg/kg/day
  NOAEL: ≥ 250 mg/kg/day
[9]; [18]
  LEL: 15 mg/kg/day
  NEL: < 15 mg/kg/day
[9]; [22]
  LOAEL: > 250 mg/kg/day
  NOAEL: ≥ 250 mg/kg/day
